Data published in patent publication US20110028552A1, “MEXILETINE AMINO ACID AND PEPTIDE PRODRUGS AND USES THEREOF” (priority 2009, published 2011).
Marks after values point to notes of the source that are not given here.

Assays:
[1] = in vivo; details: for half-life: t½
Experimental: Blood samples were taken at various times after administration and submitted to analysis for the prodrug and parent drug using a validated LC-MS-MS assay. Pharmacokinetic parameters derived from the plasma analytical were determined using Win Nonlin.

[2] = treated patients (Morganroth 1987); cited from earlier work
[3] = in vivo, po, 10 mg, Mean, plasma mexiletine, mean of six ferrets, oral 10 mg mexiletine free base equivalents/kg
[4] = in vivo, po, 10 mg, plasma mexiletine, individual ferrets, oral 10 mg mexiletine free base equivalents/kg

SMILES: Cc1cccc(C)c1OCC(C)N.Cl (racemic) [Mexiletine hydrochloride, (rac)-1-(2,6-dimethylphenoxy)-2-propanamine hydrochloride]
- Tmax ([1]; in vivo, po, 10 mg): 30 min
- half-life ([1]; in vivo, po, 10 mg mexiletine free base equivalents/kg, Mean, plasma mexiletine, six ferrets, b = calculated as ln2/mean k, oral 10 mg free base equivalents/kg): 270 min
- AUC [1, 3]: 19500 ng·h/mL
- AUC [1, 4]: 24400 ng·h/mL
- Cmax [1, 3]: 3540 ng/mL
- Cmax [1, 4]: 3770 ng/mL
- half-life [1, 4]: 240 min
- Tmax ([1]; plasma mexiletine, individual ferrets, oral 10 mg mexiletine free base equivalents/kg): 30 min
- Tmax, Median value ([1]; plasma mexiletine, median of six ferrets, oral 10 mg mexiletine free base equivalents/kg): 0.5^a h
- incidence of nausea, vomiting and abdominal discomfort [2]: 38%
